# Source: patent publication US20230107216A1, “PANTETHEINE DERIVATIVES AND USES THEREOF” (Comet Therapeutics, Inc., priority 2018, published 2023)
# How the values were obtained:
# HepG2 cells = experiment: Glucose uptake (Glucose Uptake-Glo); assay type: cell-based, human; details: 50 uM
# [1] = system: Coronary artery smooth muscle cells (CASM3C system); experiment: BioMAP CASM3C system (IL-1β, TNFα, IFNγ); assay type: cell-based, human; details: 1 uM
# [2] = system: Bronchial epithelial cells co-cultured with dermal fibroblast (BF4T system); experiment: BioMAP BF4T system (TNFα and IL-4); assay type: cell-based, human; details: procedure of Example 830
# [3] = system: Peripheral blood mononuclear cells co-cultured with venular endothelial cells (HUVEC) (LPS system); experiment: BioMAP LPS system; assay type: cell-based, human; details: procedure of Example 827
# [4] = system: Bronchial epithelial cells (BE3C system); experiment: BioMAP BE3C system (IL-1β, TNFα, IFNγ); assay type: cell-based, human; details: 10 uM; procedure of Example 831
# [5] = system: Venular Endothelial cells (HUVEC) (4H system); experiment: BioMAP 4H system (IL-4 and histamine); assay type: cell-based, human; details: 10 uM; procedure of Example 826
# [6] = system: Dermal fibroblasts (HDF3CGF system); experiment: BioMAP HDF3CGF system (IL-1β, TNFα, IFNγ, EGF, bFGF, PDGF-BB); assay type: cell-based, human; details: 10 uM
# [7] = system: Peripheral blood mononuclear cells co-cultured with B-cells (BT system); experiment: BioMAP BT system (α-IgM and TCR ligands); details: procedure of Example 829
compound,measurement,setting,value
COC(=O)CCC(=O)CC(=O)SCCNC(=O)CCNC(=O)[C@H](O)C(C)(C)COP(=O)(O)O,% increase in Glucose Uptake,HepG2 cells,≥30%
same,% decrease in Thrombomodulin,[1],≥10%
same,% decrease in VCAM-1,[1]; procedure of Example 832,≥10%
same,% decrease in MMP-9,[2]; 1 uM,≥10%
same,% decrease in tPA,[2]; 10 uM,≥10%
same,% increase in sTNFα,[3]; 1 uM,≥20%
same,% decrease in M-CSF,[3]; 10 uM,≥10%
same,% decrease in Thrombomodulin,[3]; 10 uM,≥20%
same,% decrease in sPGE2,[3]; 10 uM,≥10%
same,% increase in sPGE2,[3]; 10 uM,≥20%
same,% decrease in uPA,[4],≥10%
same,% increase in PAI-I,[4],≥10%
same,% decrease in E-Selectin,[5],≥20%
same,% decrease in Collagen III,[6],≥20%
same,% decrease in M-CSF,[6],≥10%
same,% decrease in TIMP-2,[6],≥20%
same,% increase in 72 Hour Proliferation,[6],≥10%
same,% increase in PAI-I,[6],≥20%
same,% decrease in CXCL11/I-TAC,[6]; procedure of Example 833,≥10%
same,% increase in sIL-6,[7]; 1 uM,≥10%
same,% decrease in B-cell proliferation,[7]; 10 uM,≥20%
same,% decrease in sIL-6,[7]; 10 uM,≥10%
same,% decrease in sIL-17,[7]; 10 uM,≥20%
same,% increase in sIL-2,[7]; 10 uM,≥20%
